Antibody variant affinities, Ab-95 light chain, assay 2

Values reported by Engelhart et al. 2022, doi:10.1038/s41597-022-01779-4 (FLAb copy).

All variants were tested on one target, the spike HR2 peptide PDVDLGDISGINAS (SARS-CoV-2).

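The parent was found by panning a naive human phage display library on the peptide. In library AAYL52, one, two or three CDR residues were substituted; doubles and triples were drawn at random. The scFvs were displayed on barcoded MATa yeast, the peptide on MATalpha yeast. Pairs that bind mate more often; barcode pairs of the diploids are counted by sequencing. Each replicate has its own calibration line, from reference interactions of the BCL2 family. The assay was run in three technical replicates.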

Parent scFv Ab-95: VH joined to VL by three GGGGS repeats. Changes lie in the light chain CDRs alone.
VH: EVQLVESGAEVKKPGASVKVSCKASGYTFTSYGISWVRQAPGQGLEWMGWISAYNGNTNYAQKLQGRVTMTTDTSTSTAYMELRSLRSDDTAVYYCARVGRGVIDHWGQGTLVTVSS
VL: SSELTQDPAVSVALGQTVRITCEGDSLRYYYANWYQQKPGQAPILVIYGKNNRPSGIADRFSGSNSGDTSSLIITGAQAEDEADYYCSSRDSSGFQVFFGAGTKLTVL

Substitutions are numbered in sequence along the VL above, starting at 1 (not Kabat). This list gathers variants with a substitution at S88 (VL, numbered from residue 1). Values are log10 of the apparent Kd in nM; lower means stronger binding. Averages over replicates are reported, and they cover detected replicates only. "nd" means that the variant was in the library but no mating with the target was seen in any replicate; the authors take this as a sign of poor binding, and no number exists. Nonspecific signal, from three strains lacking the peptide, appeared in 28% of pairings of library AAYL52, centred on 3.91 (5% of these signals below 2.90); values are not corrected for it.

With Y30N+S88C+S93N the result was 1.06 (3 of 3 replicates). Variant R53C+S55Q+S88A gave 3.50 (1 of 3 replicates). Variant Y30P+N51E+S88C showed 2.14 (3 of 3 replicates). For S88G+S93A+V97Y, the assay gave 4.55 (2 of 3 replicates). With S88H+S93R the result was 3.41 (1 of 3 replicates). Variant S88Q+S93K+G94F showed 2.99 (1 of 3 replicates). Variant A32F+N51K+S88T showed 3.83 (1 of 3 replicates).

Variant S26Q+S55A+S88E gave 3.61 (2 of 3 replicates). Variant Y29T+Y31W+S88R gave 3.12 (2 of 3 replicates). Variant L27I+Y31V+S88Q showed nd (0 of 3 replicates). For D25A+R28S+S88D, the assay gave 4.29 (2 of 3 replicates). Variant N51C+S88N+G94V gave 3.54 (3 of 3 replicates). With N52G+S88Y the result was 3.69 (1 of 3 replicates). Variant G49E+S88H+S93V gave 3.77 (2 of 3 replicates).

Variant Y31P+A32G+S88C showed 2.40 (3 of 3 replicates). For D25V+A32I+S88D, the assay gave nd (0 of 3 replicates). With S88D+S92I+F95W the result was 3.00 (1 of 3 replicates). With K50H+S88A the result was 2.53 (3 of 3 replicates). For S26F+S88N+S89A, the assay gave 3.44 (3 of 3 replicates). With S26C+S88R+Q96V the result was 4.67 (2 of 3 replicates). With Y31S+K50W+S88E the result was 1.74 (3 of 3 replicates).

Variant N33S+S88T+F95L gave 3.93 (1 of 3 replicates). Variant P54M+S88T+S92Q gave 4.34 (2 of 3 replicates). For D25C+Y29C+S88T, the assay gave nd (0 of 3 replicates). Variant E23L+S88T+F95N gave 4.49 (2 of 3 replicates). For G24E+S88M+S93I, the assay gave 3.08 (2 of 3 replicates). With G49E+S88R+F98R the result was 5.02 (1 of 3 replicates). For S88F+F98E, the assay gave nd (0 of 3 replicates).

Variant L27E+R53Q+S88I showed 4.44 (3 of 3 replicates). Variant Y29F+S88D+G94I gave 3.81 (1 of 3 replicates). Variant D25Y+S88D showed 2.34 (3 of 3 replicates). Variant S26T+S88I+D91E showed 3.52 (2 of 3 replicates). With R28K+Y31A+S88R the result was 1.48 (3 of 3 replicates). For S26V+S88Y+V97W, the assay gave 2.73 (3 of 3 replicates). Variant S88I+S89E+F98M gave 2.61 (3 of 3 replicates).

For P54N+S88Y+Q96L, the assay gave 4.11 (2 of 3 replicates). With S88F+R90A the result was 2.12 (3 of 3 replicates). For Y31W+S88Q+Q96Y, the assay gave 3.08 (1 of 3 replicates). For S88T+S93T+F95K, the assay gave 2.77 (3 of 3 replicates). Variant P54T+S88H showed 3.41 (3 of 3 replicates). For Y31L+S88D+Q96A, the assay gave 4.37 (1 of 3 replicates). Variant A32T+N52L+S88R showed 5.38 (1 of 3 replicates).

Variant G49N+N52D+S88M gave 1.73 (3 of 3 replicates).

The 5 strongest on average among those seen in every replicate, once more:

The variant Y30N+S88C+S93N showed 1.06 (3 of 3 replicates).
The variant R28K+Y31A+S88R showed 1.48 (3 of 3 replicates).
The variant G49N+N52D+S88M showed 1.73 (3 of 3 replicates).
The variant Y31S+K50W+S88E showed 1.74 (3 of 3 replicates).
The variant S88F+R90A showed 2.12 (3 of 3 replicates).